Where “and” joins values, the source holds several entries; their conditions need not be identical. Equal entries are not always repeated. This is a selection; strong and weak results do not stand in their true shares. Records with an inconclusive call do not appear. Calls of active or inactive are those of the source. The call rests on the fitted dose curve; in most records, active means well fitted activation curve with a large enough effect; inconclusive means small, poorly fitted or top-dose-only effect; inactive means no such curve, though single readings can be large or run the other way.

This assay in a line: qHTS screen for small molecules that induce genotoxicity in human embryonic kidney (HEK293T) cells expressing luciferase-tagged ELG1. Further: % of control where 0% means no effect; nearly all actives have a fitted effect of over 60% in size. To be noted: HEK293T ELG1-luciferase reporter, luminescence, 16 h; at 46 µM (top of the series). The text has this:
NIH Molecular Libraries Probe Production Network [MLPCN] NIH Chemical Genomics Center [NCGC] MLPCN Grant: 1 R03 MH092164-01 Assay Provider: Kyungjae Myung, NHGRI, NIH Keywords: MLPCN, qHTS, NCGC, genotoxicity, cancer Assay Overview: Cancer cells divide rapidly compared to normal cells in the body. During cell division, cancer cells need to duplicate their genome by DNA replication. The failure of genome duplication leads to cancer cells' death. Therefore, inhibitors of DNA replication could specifically kill cancer cells. Based on this concept, many chemotherapeutic agents were developed and have been used to treat cancer patients. However, there are a limited number of agents available in the clinical setting, and some of those that do exist have low efficacy and severe side effects. Therefore, if we can find the compounds that effectively block DNA replication either by directly damaging DNA or by inhibiting other cellular mechanisms, the options for cancer treatment will be broadened. With this in mind, we developed a quantitative high-throughput ELG1-luciferase reporter gene assay. Since the level of human ELG1 protein is enhanced in response to genetic stresses, increases in luciferase activity can be used to identify compounds that cause genetic stress.
Assay Protocol Summary: For genotoxicity screening, 2,000 cells in 5 uL/well were dispensed into white, solid-bottom 1536-well plates using a solenoid-based dispenser. Following transfer of 23 nL compound or DMSO vehicle by a pin tool, the plates were incubated 16 hr at 37 °C and 5% CO2. 5 ul ONE-Glo (Promega) was then added to each plate and following a 30 min incubation at room temperature, luciferase activity was quantified on a ViewLux CCD-based plate reader.
A general note: Quantitative high-throughput screening tests each substance at several concentrations.
Consider `COc1ccccc1CNC(=O)COC(=O)C(O)(c1ccccc1)c1ccccc1`, for which the activity change, positive = activation was inactive: 0.0207%. The same measure for `O=[As](O)(c1ccccc1Br)c1ccccc1Br`: inactive: -1.68%; for `CC(C)/C=N\N=C(\N)N[N+](=O)[O-]`: inactive: 1.45%. The same measure for `CCOP(=O)(Nc1ccc(C)cn1)OCC`: inactive: -2.13%; for `CCOP(=O)(NC(=NC(C)c1ccccc1)NC(C)c1ccccc1)OCC` (stereo unspecified): inactive: 0.796%; for `CCC1=CC2Cc3nc4ccc(Cl)cc4c(N)c3C(C1)C2` (stereo unspecified): inactive: -9.33%. The result for `O=P1(Nc2ccccn2)COc2ccccc2OC1` reads inactive: -0.0383%; that for `CC(C)(C)C(=O)NC(Sc1ncccn1)C(Cl)(Cl)Cl` (stereo unspecified), inactive: -4.37%; that for `Clc1n[nH]nc1-c1nn[nH][15n]1`, inactive: -0.135%. Regarding `O=P1(Nc2ncccn2)COc2ccccc2OC1`, the activity change, positive = activation was inactive: 0.857%.

For the compound `O=[As](O)(c1cccs1)c1cccs1`, the activity change, positive = activation is inactive: 6.59%. Take `Cc1ccc(OCC(=O)OC2CN3CCC2CC3)cc1` (stereo unspecified): the activity change, positive = activation was inactive: -1.34%.

Take `NS(=O)(=O)c1cccc(NC(=O)COC(=O)C(O)(c2ccccc2)c2ccccc2)c1`: the activity change, positive = activation was inactive: -0.215%.

Regarding `O=P1(Nc2ccc(Br)cn2)COc2ccccc2OC1`, the activity change, positive = activation was inactive: 1.36%. For `Nc1cccc([As](=O)(O)c2ccccc2)c1`, the activity change, positive = activation is inactive: -0.51%.

On to `Cc1ccc(C(=O)OC2CN3CCC2CC3)cc1` (stereo unspecified), for which the activity change, positive = activation is inactive: 1.15%. The same measure for `CC1CCC(C(C)C)C(OP(=O)(Nc2ccccn2)c2ccccc2)C1` (stereo unspecified): inactive: -6.8%; for `Cc1nn(-c2ccccc2)c2c1P(=O)(N1CCOCC1)N(C)C(c1ccccc1)=N2` (stereo unspecified): inactive: 9.87%. The result for `O=C(/C=C/c1ccccc1)OC1CN2CCC1CC2` (stereo unspecified) reads inactive: 1.83%. Turning to `CN(C)C1(CNC(=O)c2ccc(S(C)(=O)=O)cc2)CCCCC1`, the activity change, positive = activation is inactive: 3.42%. As for `NC(=O)Nc1ccc([As](=O)(O)O)cc1`, the activity change, positive = activation was inactive: 4.61%. For the compound `O=[N+]([O-])c1ccc2c(c1)nnn2O`, the activity change, positive = activation was inactive: 3.43%. For `CCOP1(=S)c2c(C)nn(CCC#N)c2N=C(c2ccc(F)cc2)N1C` (stereo unspecified), the activity change, positive = activation is inactive: 0.704%. The same measure for `CN(C(=O)Cc1ccccc1)[C@@H]1CC[C@]2(CCCO2)C[C@H]1N1CCCC1`: inactive: -6.36%; for `N#CCCN(C(=O)COC(=O)C(O)(c1ccccc1)c1ccccc1)c1ccc(F)cc1`: inactive: 0.61%.

`CS(=O)(=O)c1cc([N+](=O)[O-])c2no[n+]([O-])c2c1`: the activity change, positive = activation was inactive: 1.18%. The result for `O=P(Nc1nccs1)(Oc1ccccc1)Oc1ccccc1` reads inactive: -2.57%; that for `O=P(Nc1nccs1)(c1ccccc1)c1nc2ccccc2s1` (stereo unspecified), inactive: 2.55%; that for `CCOP1(=S)c2c(C)nn(CCC#N)c2N=C(c2ccccc2F)N1C` (stereo unspecified), inactive: -4.13%.

For `O=C(O)COc1ccc([As](=O)(O)O)cc1[N+](=O)[O-]`, the activity change, positive = activation is inactive: -2.35%. The same measure for `Nc1ccccc1[As](=O)(O)c1ccccc1`: inactive: -1.76%; for `CCCOP(=S)(Nc1nc(N)cc(=O)[nH]1)OCCC`: inactive: -0.832%; for `Nc1cccc2c([As](=O)(O)O)cccc12`: inactive: -1.22%. The result for `Cc1ccc(NCCc2c([N+](=O)[O-])cc([N+](=O)[O-])cc2[N+](=O)[O-])cc1` reads inactive: -3.27%; that for `CCOP(=O)(Nc1cccc2ccccc12)OCC`, inactive: 0.845%. Regarding `COc1cc(C2NCCC3(OCCO3)C2(C)C)cc(OC)c1OC` (stereo unspecified), the activity change, positive = activation was inactive: -0.331%. The result for `CS(=O)(=O)c1ccc(Cl)c(NC(=O)COC(=O)C(O)(c2ccccc2)c2ccccc2)c1` reads inactive: -8.39%.

Consider `O=[As](O)(O)c1cccnc1`, for which the activity change, positive = activation was inactive: -0.437%.

For the compound `COc1cc(C(=O)NCC2(N3CCOCC3)CCCCC2)cc(Cl)c1OC(C)C`, the activity change, positive = activation was inactive: -5.09%. Consider `O=C(OC1CN2CCC1CC2)c1ccc(Cl)cc1` (stereo unspecified), for which the activity change, positive = activation was inactive: 1.4%. The result for `O=[As](O)(c1cccc(O)c1)c1cccc(O)c1` reads inactive: -1.83%.

As to `COc1ccc(N/C(=N/P(=O)(N2CCOCC2)N2CCOCC2)N2CCOCC2)cc1`, the activity change, positive = activation is inactive: 1.94%. Consider `Cc1cc(=O)[nH]c(N[N+](=O)[O-])n1`, for which the activity change, positive = activation is inactive: 2.15%. In the case of `O=C(OC1CN2CCC1CC2)C12CC3CC(CC(C3)C1)C2` (stereo unspecified), the activity change, positive = activation was inactive: -2.7%.

On to `Cc1c2c(nc3ccccc13)SC(C(Cl)Cl)C2` (stereo unspecified), for which the activity change, positive = activation is inactive: 4.98%. The result for `COc1cc(I)ccc1[As](=O)(O)O` reads inactive: -1.72%. The same measure for `COc1ccc2nc(NP(=O)(c3ccccc3)c3ccccc3)sc2c1`: inactive: -10.3%. The same measure for `CC(C)c1ccc(OP(=O)(Nc2ccccn2)Oc2ccccc2F)cc1` (stereo unspecified): inactive: -8.61%; for `ClCCSc1nnc(-c2cccnc2)o1`: inactive: 8.23%. Turning to `O=[N+]([O-])c1cc([N+](=O)[O-])c(-c2ccn[nH]2)s1`, the activity change, positive = activation is inactive: -8.36%. With `CC(C)NC(=O)NP(=O)(Oc1ccccc1)Oc1ccccc1`, the activity change, positive = activation is inactive: 0.157%. As to `CCN(CC)C(=S)SC(NC=O)C(Cl)(Cl)Cl` (stereo unspecified), the activity change, positive = activation is inactive: -0.433%. For `COc1cc(C(=O)NCC2(N3CCOCC3)CCCCC2)ccc1OCC(C)C`, the activity change, positive = activation is inactive: -1.78%. As to `C[As](=O)(O)c1cccc(C(=O)O)c1`, the activity change, positive = activation is inactive: 2.96%. The same measure for `O=[As](O)(c1ccc(O)cc1)c1ccccc1O`: inactive: 0.83%; for `Cc1ccc2nc3c(c(C)c2c1)CC(C(Cl)Cl)S3` (stereo unspecified): inactive: 12.1%; for `Cc1ccc(OP(=O)(Nc2ccc([N+](=O)[O-])cn2)Oc2ccc(C)cc2)cc1`: inactive: 0.369%. The result for `CCOC(=O)Nc1cccc([As](=O)(O)O)c1` reads inactive: 2.74%; that for `O=[N+]([O-])c1ccc(Nc2ccc(Oc3ccc([N+](=O)[O-])cc3[N+](=O)[O-])cc2)c([N+](=O)[O-])c1`, inactive: 3.81%. The same measure for `Cc1cc(SC(NC=O)C(Cl)(Cl)Cl)ncn1` (stereo unspecified): inactive: -6.32%.

For the compound `O=P(Nc1ccccn1)(c1cccc2ccccc12)c1cccc2ccccc12`, the activity change, positive = activation is inactive: -0.133%. The same measure for `CCOC(=O)Nc1ccc([As](=O)(O)O)c(O)c1`: inactive: -1.11%; for `Cc1cc(SC(NC(=O)c2ccccc2)C(Cl)(Cl)Cl)nc(C(C)C)n1` (stereo unspecified): inactive: 1.84%. The same measure for `CCCCOc1ccc(C(=O)NCC2(N3CCCCC3)CCCCC2)cc1OC`: inactive: -0.0513%; for `O=C(OC1CN2CCC1CC2)c1cccc([N+](=O)[O-])c1` (stereo unspecified): inactive: 1.79%. As to `CCC(C)N(CC(C)C)C(=S)SC(NC(C)=O)C(Cl)(Cl)Cl` (stereo unspecified), the activity change, positive = activation was inactive: 0.535%. On to `COP1(=S)c2c(C)nn(CCC#N)c2N=C(c2ccc(F)cc2)N1C` (stereo unspecified), for which the activity change, positive = activation is inactive: -0.877%. The result for `O=C(Nc1ccncc1[N+](=O)[O-])c1ccc([N+](=O)[O-])cc1[N+](=O)[O-]` reads inactive: -14.9%; that for `O=C(COc1ccccc1)OC1CN2CCC1CC2` (stereo unspecified), inactive: -0.185%; that for `Nc1ccc([As](=O)(O)c2ccc(N)cc2)cc1`, inactive: 0.0692%. The result for `CCN(/C(=N/P(=O)(N1CCOCC1)N1CCOCC1)N1CCOCC1)c1ccc(OC)cc1` reads inactive: 1.09%; that for `CN(C)C(=O)OCCc1n(C)cc[n+]1C`, inactive: -1.59%. The same measure for `CC(C)=N/N=C(\N)N[N+](=O)[O-]`: inactive: 0.0255%; for `CC1CCN(C(=O)Oc2c(Cl)cc(Cl)c3cccnc23)CC1`: inactive: -0.44%; for `COc1ccc(C2=NCC(CBr)S2)cc1` (stereo unspecified): inactive: 0.131%. With `CC(=O)N1C2C3N(C(C)=O)C1C1N(C(C)=O)C(C(N1C(C)=O)N3C(C)=O)N2C(C)=O`, the activity change, positive = activation was inactive: 0.617%. As for `O=[N+]([O-])c1cccc2n[nH]nc12`, the activity change, positive = activation is inactive: 1.51%. In the case of `O=[N+]([O-])c1cc([N+](=O)[O-])c(CCNc2ccccc2)c([N+](=O)[O-])c1`, the activity change, positive = activation is inactive: -8.68%. For `Cc1ccc(NP(=O)(Oc2ccccc2)Oc2ccccc2)nc1`, the activity change, positive = activation was inactive: -2.89%. Regarding `CC(C)(C)C(=O)NC(Sc1ccncn1)C(Cl)(Cl)Cl` (stereo unspecified), the activity change, positive = activation is inactive: -2.1%. The result for `O=[N+]([O-])c1ncn(CCn2ncnc2[N+](=O)[O-])n1` reads inactive: 0.608%. For the compound `O=[N+]([O-])c1cccc(NC2=NCC(CBr)S2)c1` (stereo unspecified), the activity change, positive = activation is inactive: -6.91%. The result for `O=C(O)CNc1ccc([As](=O)(O)O)cc1` reads inactive: -1.55%; that for `O=C(Nc1cc([As](=O)(O)O)ccc1O)c1ccccc1`, inactive: -9.65%. `O=[N+]([O-])c1cc([N+](=O)[O-])c(CCN2CCOCC2)c([N+](=O)[O-])c1`: the activity change, positive = activation is inactive: -10.9%. The same measure for `CCN(N=Nc1nonc1N)c1nonc1N`: inactive: -6.21%. For `Nc1cccc2ccc([As](=O)(O)O)cc12`, the activity change, positive = activation was inactive: 0.345%. The result for `CC(=O)Nc1ccc([As](=O)(O)O)cc1` reads inactive: -4.12%; that for `O=C(O)c1ccccc1[As](=O)(O)O`, inactive: -1.53%; that for `O=P(Nc1nc2ccc(Cl)cc2s1)(c1ccccc1)c1ccccc1`, inactive: -10.2%. Turning to `Cc1ccc(NP(=O)(Oc2ccccc2F)Oc2ccccc2F)nc1`, the activity change, positive = activation is inactive: 2.44%.

In the case of `Cc1cc(SC(NC(=O)c2ccc(F)cc2)C(Cl)(Cl)Cl)ncn1` (stereo unspecified), the activity change, positive = activation was inactive: -2.67%. For `CCOP(=O)(Nc1ccccc1)OCC`, the activity change, positive = activation is inactive: 0.939% and inactive: -3.9%. The same measure for `Nc1cc(N)c2nonc2c1[N+](=O)[O-]`: inactive: -1.35%; for `CC(C)CC(=O)NC(Sc1ccc(Cl)cc1)C(Cl)(Cl)Cl` (stereo unspecified): inactive: -0.129%; for `O=C(NC(Sc1ccncn1)C(Cl)(Cl)Cl)c1ccccc1` (stereo unspecified): inactive: 0.497%.

As for `Cc1c2non([O-])c-2c(C)[n+](=O)[n+]1[O-]`, the activity change, positive = activation is inactive: -39.4%. The result for `Oc1ccccc1CNc1ccccn1` reads inactive: 8.97%; that for `NC(=O)c1cc([N+](=O)[O-])cc([N+](=O)[O-])c1N`, inactive: -7.26%; that for `Cc1ccc(N/C(=N/P(=O)(N2CCOCC2)N2CCOCC2)N2CCOCC2)cc1`, inactive: 4.86%.

For the compound `CN(C(=O)Cc1ccc(Cl)c(Cl)c1)[C@H]1CCCC[C@H]1N1CCCC1`, the activity change, positive = activation was inactive: -7.74%.

These data come from PubChem BioAssay AID504466 (National Center for Advancing Translational Sciences (NCATS), 2011).
